# From patent US11117932B2, “Peptides for specific inhibition of Jag 1-Notch 1 pathway” (The Hong Kong Polytechnic University, priority 2018, dated 2021)
# Amino acid sequences for entries named in this document (tags omitted). Residues count along the entry.
# UniProt P78504, 34-1218: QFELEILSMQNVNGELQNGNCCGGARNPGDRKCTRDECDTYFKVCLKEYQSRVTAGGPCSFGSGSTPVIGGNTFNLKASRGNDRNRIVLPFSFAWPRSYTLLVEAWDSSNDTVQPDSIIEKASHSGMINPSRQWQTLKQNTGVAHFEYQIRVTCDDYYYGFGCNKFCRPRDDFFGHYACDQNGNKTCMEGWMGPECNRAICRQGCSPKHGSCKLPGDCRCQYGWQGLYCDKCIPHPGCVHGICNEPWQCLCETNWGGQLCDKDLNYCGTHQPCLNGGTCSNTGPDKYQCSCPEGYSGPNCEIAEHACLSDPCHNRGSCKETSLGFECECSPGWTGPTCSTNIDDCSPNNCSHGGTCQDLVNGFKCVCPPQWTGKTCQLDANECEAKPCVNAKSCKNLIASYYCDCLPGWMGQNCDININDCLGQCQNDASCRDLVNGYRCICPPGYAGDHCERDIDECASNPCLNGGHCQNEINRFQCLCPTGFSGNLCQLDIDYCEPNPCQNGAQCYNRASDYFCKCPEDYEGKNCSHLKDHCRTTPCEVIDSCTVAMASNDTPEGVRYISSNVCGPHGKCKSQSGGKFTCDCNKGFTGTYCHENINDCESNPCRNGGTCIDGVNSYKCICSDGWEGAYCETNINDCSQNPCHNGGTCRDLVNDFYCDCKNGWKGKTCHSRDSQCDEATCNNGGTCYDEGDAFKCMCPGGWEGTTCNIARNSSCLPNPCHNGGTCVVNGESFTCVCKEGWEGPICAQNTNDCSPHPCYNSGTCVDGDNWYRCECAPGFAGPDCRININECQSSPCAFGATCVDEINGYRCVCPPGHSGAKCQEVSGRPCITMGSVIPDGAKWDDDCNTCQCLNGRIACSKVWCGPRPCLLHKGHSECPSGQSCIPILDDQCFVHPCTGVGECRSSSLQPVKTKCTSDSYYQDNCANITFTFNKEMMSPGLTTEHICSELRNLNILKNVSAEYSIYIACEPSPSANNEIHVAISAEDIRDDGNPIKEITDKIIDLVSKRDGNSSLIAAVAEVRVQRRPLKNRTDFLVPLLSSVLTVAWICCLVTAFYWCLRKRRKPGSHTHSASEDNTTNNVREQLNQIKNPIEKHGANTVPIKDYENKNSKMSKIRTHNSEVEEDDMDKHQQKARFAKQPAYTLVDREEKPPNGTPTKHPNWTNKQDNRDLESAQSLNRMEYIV
# What was measured:
# S1-M1-80 cells [1] = type: cell-based, human
# Protocol: (§1) HCT-116, HCT-15, S1-M1-80, S1, L929, HEK293T-Jagged-1 were seeded in each well of a 96-well plate with a series of concentrations (a serial dilution from 1000μM to 0.5 μM) of peptides or drugs including DAPT, Topotecan at 37° C. with 5% CO2 in a humidified incubator for 3 days. Percentage of survival was determined by MTS assay as described.
# S1 = type: cell-based, human
# Protocol: as §1
# Jag1-Notch1 signalling = test: Co-culture Notch luciferase reporter assay, Jag1-induced; type: cell-based, human; conditions: for inhibition of Jag1-induced Notch1 signalling, dose response: reporter assay, DAPT 50 μM; for inhibition of Jag1-induced Notch signaling compared with N1: peptides 25 μM
# Protocol: Jag1-Notch interaction is measured using a co-culture assay with one cell line expressing the Notch ligand Jagged1 (Jag1) and a second expressing Notch (either Notch1 or Notch2). A firefly luciferase reporter plasmid with 12 upstream CBF-1 binding site was transfected into signalling-receiving cells to report on Notch signalling (FIG. 1D). Peptides were tested for their activity in inhibiting Jag1-induced Notch signalling. Complete inhibition is equivalent to the background signal seen without induction (−Jag1). […] N1 (SEQ ID NO: 10) is a 15-mer derived from the EGF-like repeat 12 of Notch1 (C467-G481). This is consistent with the structural information that EGF-like repeat 12 of Notch1 is near the MNNL domain of Jag1 (FIGS. 1B and C).
# (§2) Specificity of N1 (SEQ ID NO: 10) peptide in inhibiting different Notch ligand-induced Notch signaling was investigated using in vitro co-culture assay. HEK293T or CHO cells expressing Notch ligand (either Jag1, DLL1 or DLL4) are co-cultured with Notch1- or Notch2-expressing cells. Notch1 and Notch2 signalling can be measured by either luciferase reporter assay or by the formation of NICD1 and NICD2. […] Half inhibition is reached at between 50 to 100 μM. […] This contrasts with DAPT which affects all the above interactions.
# (§3) HEK-293T-Jagged-1 cells were seeded in 24-well plates in triplicate per sample group, and human HCT-116 cells were seeded in one 60 mm dish. Cells were allowed to settle, and were transfected the following day after the medium was changed to be antibiotic free. HCT-116 cells were transfected with 12×CSL-Luc and Renilla-Luc, using Lipofectamine® 3000 (Invitrogen™), according to the manufacturer's instructions. After 24 hours, HCT-116 cells were scraped and 2.5×10^4 cells in 1 mL complete medium per well were added to both 24-well plates. Peptides were treated to cells with the desired concentrations. N—[N-(3,5-difluorophenacetyl)-L-alanyl]-S-phenylglycine t-butyl ester (DAPT) was used as positive control. Cells were co-cultured for 12 hours before measure the luciferase activity. After incubation, cells were lysed with luciferase lysis buffer. Notch activity in cells expressing the 12×CSL-Luc reporter construct was measured by a luciferase assay using Dual-Luciferase® Reporter Assay System (Promega).
# DLL1-Notch1 signalling = test: Co-culture Notch luciferase reporter assay, DLL1-induced; type: cell-based, human; conditions: DAPT 50 μM
# Protocol: as §2
# as §3, with “Cells were co-cultured for 12 hours before measure the luciferase activity. After incubation, cells were lysed with luciferase lysis buffer.” left out
# DLL4-Notch1 signalling = test: Co-culture Notch luciferase reporter assay, DLL4-induced; type: cell-based, human; conditions: DAPT 50 μM
# Protocol: as §2
# as §3, with “Cells were co-cultured for 12 hours before measure the luciferase activity. After incubation, cells were lysed with luciferase lysis buffer.” left out
# NICD1 [2] = test: NICD1 formation in HCT-116; type: cell-based, human; conditions: peptides 100 μM
# Protocol: (§4) This panel of peptides was also tested for their cytotoxic activities against two human colorectal cell lines (HCT-116 and HCT-15). At a concentration of 100 μM, N1 (SEQ ID NO: 10) is the only peptide that is cytotoxic to HCT-116 and HCT-15 cells (FIGS. 2B and C). Notch signaling results in the release of NICD1 from the membrane-bound Notch receptor.
# (§5) The cleaved Notch1 (Val1744) (D3B8) rabbit monoclonal antibody (CST) and Notch2 (Cleaved Ala1734) rabbit monoclonal antibody at 1:1000 dilution were used to detect human Notch intracellular domain (NICD1) and Notch2 intracellular domain (NICD2), respectively. β-actin was detected using a mouse monoclonal antibody (Santa Cruz Biotechnology) at 1:3000 dilution.
# NICD1 [3] = test: NICD1 formation in HCT-15; type: cell-based, human; conditions: peptides 100 μM
# Protocol: as §4, §5
# Jag1-induced NICD1 = test: Co-culture assay, Jag1-induced NICD1 level; type: cell-based, human; conditions: N1 at 50 μM
# Protocol: as §2, §5
# NICD2 = test: Co-culture assay, NICD2 formation (Jag1-Notch2); type: cell-based, human
# Protocol: as §2, §5
# DLL1-induced NICD1 = test: Co-culture assay, DLL1-induced NICD1 level; type: cell-based, human
# Protocol: as §2, §5
# DLL4-induced NICD1 = test: Co-culture assay, DLL4-induced NICD1 level; type: cell-based, human
# Protocol: as §2, §5
# human Jag1 = target: T1, human Jag1 (Homo sapiens, UniProt P78504); test: In vitro pull-down assay with biotinylated peptide; type: binding
# T1 construct: The human embryonic kidney cells 293T stably expressed full length human Jagged-1 (HEK293T-Jagged-1); expressed in transfected cells
# Protocol: HEK293T-Jagged1 cells were lysed in 1×RIPA lysis buffer (20 mMTris-HCl (pH 7.5) 150 mM NaCl, 1 mM Na2EDTA, 1 mM EGTA, 1% NP-40, 1% sodium deoxycholate, 2.5 mM sodium pyrophosphate, 1 mM β-glycerophosphate, 1 mM Na3VO4). One microgram of biotin-labeled peptides and streptavidin-conjugated magnetic beads (Promega) was used to pull down human Jag1. The resulting proteins were resolved on SDS-PAGE and detected with an anti-Jagged1 antibody.
# S1-M1-80 cells [4] = test: Clonogenicity assay, S1-M1-80; type: cell-based, human
# Protocol: (§6) The procedure for colony formation assay consists of following steps. An appropriate number of cells per well were seeded on a 6-well plate in duplicate. The number of cells for seeding should be related to the aggressiveness of the treatment. The cells were incubated for 12 hours in a CO2 incubator at 37° C. and allow cells to attach to the plate. The cells were treated with peptides or (DAPT) to required concentrations. The cells were incubated in a in a CO2 incubator at 37° C. for about 10 days until cells in control well have formed colonies which are of a substantially good size (the minimum score is 100 cells per colony). After the incubation, the medium was removed and cells were rinsed with 5 ml 1×PBS (phosphate buffered saline. pH 7.2). The cells were then fixed with 1 ml methanol at room temperature for 10 min. After fixation, the cells were stained with 0.5% crystal violet solution and incubated at room temperature for 1 h. After staining, the plates were immersed in deionized water to rinse off crystal violet and air-dried at room temperature for overnight. The dry plates were pictured with scanner. The number of colonies in each well was counted by cell counter software.
# HCT-116 = test: Clonogenicity assay, HCT-116; type: cell-based, human; conditions: data not shown
# Protocol: as §6
# HCT-15 = test: Clonogenicity assay, HCT-15; type: cell-based, human; conditions: data not shown
# Protocol: as §6
# HEK-293T-Jagged-1 cells = type: cell-based, human
# Protocol: as §1
Structure (SMILES),IC50 (S1-M1-80 cells [1]) [µM],IC50 (S1) [µM],"inhibition of Jag1-induced Notch1 signalling, dose response (Jag1-Notch1 signalling)",inhibition of DLL1-Notch1 signalling (DLL1-Notch1 signalling),inhibition of DLL4-Notch1 signalling (DLL4-Notch1 signalling),Jag1-induced NICD1 level (Jag1-induced NICD1),inhibition of Jag1-induced Notch signaling compared with N1 (Jag1-Notch1 signalling),also measured
"CC[C@H](C)[C@H](NC(=O)[C@H](CCC(N)=O)NC(=O)[C@H](CC(=O)O)NC(=O)[C@H](CC(C)C)NC(=O)[C@@H](N)CS)C(=O)NCC(=O)N[C@@H](CCC(=O)O)C(=O)N[C@@H](Cc1ccccc1)C(=O)N[C@@H](CCC(N)=O)C(=O)N[C@@H](CS)C(=O)N[C@H](C(=O)N[C@@H](CS)C(=O)N[C@@H](CCSC)C(=O)N1CCC[C@H]1C(=O)NCC(=O)O)[C@@H](C)CC [Peptide N1, CLDQIGEFQCICMPG]",16.3 ± 0.6,> 50,inhibited Jag1-induced Notch1 signalling in a dose-dependent manner,cannot inhibit,cannot inhibit,markedly reduced,–,"disruption of Jag1-induced Notch signalling (reporter) (Jag1-Notch1 signalling; screening, peptides 100 μM): can disrupt Jag1-Notch1 signalling; NICD1 formation in HCT-116 (NICD1 [2]): almost complete elimination of NICD1; NICD1 formation in HCT-15 (NICD1 [3]): almost complete elimination of NICD1; NICD2 formation (NICD2): does not affect NICD2 formation; DLL1-induced NICD1 level (DLL1-induced NICD1): no effect; DLL4-induced NICD1 level (DLL4-induced NICD1): no effect; binding to Jag1 (immunoprecipitation of Jag1 from HEK293T-Jagged1 cells) (human Jag1): can be immunoprecipitated; colony formation of S1-M1-80, dose response (S1-M1-80 cells [4]): reduced the colony formation activity; colony formation activity in HCT-116 (HCT-116): reduced the colony formation activity; colony formation activity in HCT-15 (HCT-15): reduced the colony formation activity"
"CC[C@H](C)[C@H](NC(=O)[C@H](CCC(N)=O)NC(=O)[C@H](CC(=O)O)NC(=O)[C@H](CC(C)C)NC(=O)[C@H](CS)NC(=O)[C@@H](N)[C@@H](C)O)C(=O)NCC(=O)N[C@@H](CCC(=O)O)C(=O)N[C@@H](Cc1ccccc1)C(=O)N[C@@H](CCC(N)=O)C(=O)N[C@@H](CS)C(=O)N[C@H](C(=O)N[C@@H](CS)C(=O)N[C@@H](CCSC)C(=O)N1CCC[C@H]1C(=O)NCC(=O)O)[C@@H](C)CC [Peptide N1T466, TCLDQIGEFQCICMPG]",> 50,> 100,–,–,–,–,slight improvement,–
"CC[C@H](C)[C@H](NC(=O)[C@H](CCC(N)=O)NC(=O)[C@H](CC(=O)O)NC(=O)[C@H](CC(C)C)NC(=O)[C@H](CS)NC(=O)[C@@H](N)CCCCN)C(=O)NCC(=O)N[C@@H](CCC(=O)O)C(=O)N[C@@H](Cc1ccccc1)C(=O)N[C@@H](CCC(N)=O)C(=O)N[C@@H](CS)C(=O)N[C@H](C(=O)N[C@@H](CS)C(=O)N[C@@H](CCSC)C(=O)N1CCC[C@H]1C(=O)NCC(=O)O)[C@@H](C)CC [Peptide N1T466K, KCLDQIGEFQCICMPG]",> 50,> 100,–,–,–,–,slight improvement,–
"CC[C@H](C)[C@H](NC(=O)[C@H](CCC(N)=O)NC(=O)[C@H](CC(=O)O)NC(=O)[C@H](CC(C)C)NC(=O)[C@H](CS)NC(=O)[C@@H](N)CC(C)C)C(=O)NCC(=O)N[C@@H](CCC(=O)O)C(=O)N[C@@H](Cc1ccccc1)C(=O)N[C@@H](CCC(N)=O)C(=O)N[C@@H](CS)C(=O)N[C@H](C(=O)N[C@@H](CS)C(=O)N[C@@H](CCSC)C(=O)N1CCC[C@H]1C(=O)NCC(=O)O)[C@@H](C)CC [Peptide N1T466L, LCLDQIGEFQCICMPG]",8.2 ± 0.3,> 50,inhibited Jag1-induced Notch1 signaling in dose dependent manner,did not interfere,did not interfere,significantly decreased expression level of NICD1,biggest improvement,IC50 (HEK-293T-Jagged-1 cells): > 100 µM
"CC[C@H](C)[C@H](NC(=O)[C@H](CCC(N)=O)NC(=O)[C@H](CC(=O)O)NC(=O)[C@H](CC(C)C)NC(=O)[C@H](CS)NC(=O)[C@@H](N)CCC(N)=O)C(=O)NCC(=O)N[C@@H](CCC(=O)O)C(=O)N[C@@H](Cc1ccccc1)C(=O)N[C@@H](CCC(N)=O)C(=O)N[C@@H](CS)C(=O)N[C@H](C(=O)N[C@@H](CS)C(=O)N[C@@H](CCSC)C(=O)N1CCC[C@H]1C(=O)NCC(=O)O)[C@@H](C)CC [Peptide N1T466Q, QCLDQIGEFQCICMPG]",> 50,> 100,–,–,–,–,slight improvement,–
"CC[C@H](C)[C@H](NC(=O)[C@H](CCC(N)=O)NC(=O)[C@H](CC(=O)O)NC(=O)[C@H](CC(C)C)NC(=O)[C@@H](N)CS)C(=O)O [Peptide N110, CLDQI]",> 100,> 100,–,–,–,–,–,–
